Experimental data from paper PMC3342997 (HIV Medicine, 2011).
Where “and” joins values, the source holds several entries; their conditions need not be identical. Equal entries are not always repeated. Where two headings read alike, the source gives them in different places.

Settings: for CL/F: 200 mg once daily, geometric least-squares mean (90% CI)
[1] = third-trimester:postpartum ratio

Nc1nc(=O)n([C@@H]2CS[C@H](CO)O2)cc1F [emtricitabine]
CL/F (postpartum (n = 22)): 20.6 (18.4–23.2) L/hr and 20.6 L/hr
CL/F (postpartum (n = 22), listed as Emtricitabine): 20.6 (18.4–23.2) L/hr
CL/F (third trimester (n = 26)): 25.0 (22.6–28.3) L/hr
AUC, geometric mean of within-subject third-trimester:postpartum ratio (90% CI) [1]: 0.82 (0.71–0.96)
C24, geometric mean of within-subject third-trimester:postpartum ratio (90% CI) [1]: 0.68 (0.54–0.85)
CL/F, geometric mean of within-subject third-trimester:postpartum ratio (90% CI) [1]: 1.2 (1.04–1.41)
Cmax, geometric mean of within-subject third-trimester:postpartum ratio (90% CI) [1]: 0.97 (0.79–1.20)
Vd/F, geometric mean of within-subject third-trimester:postpartum ratio (90% CI) [1]: 1.1 (0.88–1.41)
t1/2, geometric mean of within-subject third-trimester:postpartum ratio (90% CI) [1]: 0.92 (0.77–1.09)
